Experiments:
[1] = target: GST-tagged wild-type human CRBN protein (Homo sapiens (Human), UniProt Q96SW2); assay: Cereblon Binding Assay (Cisbio Cereblon Binding Kit, TR-FRET); conditions: about 3 hours at room temperature
Method: (§1) The binding to cereblon (CRBN) is determined using the Cereblon Binding Kit (Cisbio, #64BDCRBNPEG) following the manufacturer's instruction. Briefly, serially diluted compounds are incubated with GST-tagged wild-type human CRBN protein, XL665-labelled Thalidomide and Europium Cryptate labelled GST antibody.
as §1, with “(CRBN) was” for “(CRBN) is”, “compounds were” for “compounds are”, “GST antibody at room temperature for about 3 hours.” for “GST antibody.”

By UniProt entry, the sequences of proteins in these tests, tags left out. Where a name states a change or a piece, a line headed by the entry shows the natural chain unless it says otherwise.
UniProt Q96SW2: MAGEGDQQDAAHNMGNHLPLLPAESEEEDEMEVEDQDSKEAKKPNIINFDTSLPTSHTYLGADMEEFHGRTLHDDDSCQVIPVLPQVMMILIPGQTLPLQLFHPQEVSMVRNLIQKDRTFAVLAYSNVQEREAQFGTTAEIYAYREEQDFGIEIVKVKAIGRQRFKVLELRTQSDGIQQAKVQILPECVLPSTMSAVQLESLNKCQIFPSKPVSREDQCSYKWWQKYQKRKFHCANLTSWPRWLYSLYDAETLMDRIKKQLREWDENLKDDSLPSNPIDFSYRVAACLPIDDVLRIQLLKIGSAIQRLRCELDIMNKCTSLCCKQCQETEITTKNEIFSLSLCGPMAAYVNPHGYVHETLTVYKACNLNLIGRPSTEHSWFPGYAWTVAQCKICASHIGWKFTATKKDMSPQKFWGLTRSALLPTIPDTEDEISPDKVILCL
UniProt Q9UKS7: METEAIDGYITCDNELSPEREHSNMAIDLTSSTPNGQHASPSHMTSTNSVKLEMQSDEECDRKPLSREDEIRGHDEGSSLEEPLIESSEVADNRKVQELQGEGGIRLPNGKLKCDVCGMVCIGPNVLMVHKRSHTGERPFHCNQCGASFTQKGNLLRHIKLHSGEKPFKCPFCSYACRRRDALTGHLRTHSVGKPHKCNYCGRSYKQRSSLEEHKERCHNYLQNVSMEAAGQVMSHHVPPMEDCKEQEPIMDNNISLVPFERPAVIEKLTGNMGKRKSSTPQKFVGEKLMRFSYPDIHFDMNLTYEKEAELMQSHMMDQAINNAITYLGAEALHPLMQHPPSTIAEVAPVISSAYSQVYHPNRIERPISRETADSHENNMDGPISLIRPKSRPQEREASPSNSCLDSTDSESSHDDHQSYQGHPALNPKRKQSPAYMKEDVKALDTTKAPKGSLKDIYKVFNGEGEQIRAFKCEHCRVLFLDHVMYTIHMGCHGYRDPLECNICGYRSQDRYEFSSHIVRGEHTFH

[2] = target: IKZF2 (Homo sapiens (Human), UniProt Q96SW2+Q9UKS7); assay: IKZF2 HiBiT Assay (Jurkat-IKZF2-HiBiT cell line); assay type: cell-based; conditions: Jurkat-IKZF2-HiBiT cells, 24 hours; read-out: HiBit assay degradation analysis DC50
Method: Degradation of IKZF2 protein is determined by IKZF2 HiBiT assay using the Jurkat-IKZF2-HiBiT (Promega) cell line. Briefly, cells are seeded in culture medium. Compounds are serially diluted in culture medium, and certain volume of the diluted compounds is added to the appropriate well of the plate. After the addition of compounds, the cells are incubated. At the end of treatment, Nano-Glo HiBiT Lytic Detection Reagent (Promega) is added to each well, and then the plates are incubated at room temperature for a certain time period. The luminescent signal is measured using a CALRIOstar plate reader (BMG Labtech). The readings are normalized to the DMSO-treated cells and the IC50 is calculated by nonlinear regression (four parameters sigmoid fitted with variable slope, least squares fit, and no constraint) analysis using the GraphPad Prism 8 software.
Degradation of IKZF2 protein was determined by IKZF2 HiBiT assay using the Jurkat-IKZF2-HiBiT (Promega) cell line. […] The luminescent signal was measured using a CALRIOstar plate reader (BMG Labtech). The readings were normalized to the DMSO-treated cells and the IC50 was calculated by nonlinear regression (four parameters sigmoid fitted with variable slope, least squares fit, and no constraint) analysis using the GraphPad Prism 8 software.

| Compound | IC50 [1] | DC50 [2] |
| --- | --- | --- |
| O=C1CCC(N2Cc3c(ccc4c3OCCC43CCNCC3)C2=O)C(=O)N1 (centres unmarked) [Compound A2, 3-(7′-oxo-2′,3′,7′,9′-tetrahydro-8′H-spiro[piperidine-4,4′-pyrano[2,3-e]isoindol]-8′-yl)piperidine-2,6-dione] | 100 to 1000 nM | > 500 nM |
| O=C1CCC(N2Cc3c(ccc4c3COC43CCNCC3)C2=O)C(=O)N1 (centres unmarked) [Compound A258, 3-(6-oxo-6,8-dihydrospiro[furo[3,4-e]isoindole-3,4′-piperidin]-7(1H)-yl)piperidine-2,6-dione] | > 1000 nM |  |
| CN1CC2(CCNCC2)c2ccc3c(c21)CN([C@H]1CCC(=O)NC1=O)C3=O [Compound A306, (S)-3-(1′-methyl-6′-oxo-1′,2′,6′,8′-tetrahydro-7′H-spiro[piperidine-4,3′-pyrrolo[3,4-g]indol]-7′-yl)piperidine-2,6-dione] | > 1000 nM |  |
| O=C1CC[C@H](N2Cc3c(ccc4c3NCC43CCNCC3)C2=O)C(=O)N1 [Compound A307] | > 1000 nM |  |

Reference: patent publication US20250215012A1, “IKZF2 DEGRADERS AND USES THEREOF” (REGENTS OF THE UNIVERSITY OF MICHIGAN, priority 2022, published 2025)
